Laboratory results taken from patent US20230203024A1, “THIAZOLOXIME AND OXAZOLOXIME DERIVATIVES AS REACTIVATORS OF ORGANOPHOSPHOROUS NERVE AGENT (OPNA)-INHIBITED HUMAN ACETYLCHOLINESTERASE FOR THE TREATMENT OF NERVOUS AND/OR RESPIRATORY FAILURE AFTER INTOXICATION WITH OPNA” (published 2023).

What was measured:
[1] = molecular target: hAChE inhibited by VX (Homo sapiens, UniProt P22303); test: Reactivation of VX-inhibited hAChE by oximes (modified Ellman assay, continuous method); conditions: for kr2 (second order reactivation rate constant) / kr (reactivation rate constant): OP: VX, 25° C.
[2] = molecular target: hAChE inhibited by sarin (Homo sapiens, UniProt P22303); test: Reactivation of sarin-inhibited hAChE by oximes (modified Ellman assay, continuous method); conditions: OP: Sarin; 25° C.
[3] = molecular target: hAChE inhibited by tabun (Homo sapiens, UniProt P22303); test: Reactivation of tabun-inhibited hAChE by oximes (modified Ellman assay, continuous method); conditions: OP: Tabun; 25° C.
[4] = molecular target: hAChE inhibited by paraoxon (Homo sapiens, UniProt P22303); test: Reactivation of paraoxon-inhibited hAChE by oximes (modified Ellman assay, continuous method); conditions: OP: Paraoxon; 25° C.

Row | SMILES | kr2 (second order reactivation rate constant) [1] [M⁻¹ s⁻¹] | kr (reactivation rate constant) [1] [min⁻¹] | kr2 (second order reactivation rate constant) [2] [M⁻¹ s⁻¹] | kr (reactivation rate constant) [2] [min⁻¹] | kr2 (second order reactivation rate constant) [3] [M⁻¹ s⁻¹] | kr (reactivation rate constant) [3] [min⁻¹] | kr2 (second order reactivation rate constant) [4] [M⁻¹ s⁻¹] | kr (reactivation rate constant) [4] [min⁻¹] | efficacy in reactivation of VX-hAChE (in words) [1]
1 | Cl.ON=Cc1csc(CCc2cccnc2)n1 | 167 | 0.06 ± 0.002 | 450 | 0.08 ± 0.003 | 0 | 0 | 15300 | 0.11 ± 0.004 | –
2 | Cl.ON=Cc1cnc(C#CCCNc2ccnc3ccccc23)s1 | 0 | 0 | 0 | 0 | 0 | 0 | 0 | 0 | –
3 | Cl.ON=Cc1cnc(CCc2cccnc2)s1 | 130 | 0.2 ± 0.008 | 26.7 | 0.18 ± 0.02 | 0 | 0 | 33 | 0.6 ± 0.005 | –
4 | Cl.ON=Cc1csc(CCc2ccccn2)n1 | 0 | 0 | 0 | 0 | 0 | 0 | 0 | 0 | –
5 | Cl.ON=Cc1nc(CCc2ccccc2)cs1 | 4330 | 0.61 ± 0.01 | – | – | – | – | – | – | highly selective efficacy
6 | Cl.ON=Cc1csc(CCCCc2cccnc2)n1 | 583 | 0.07 ± 0.002 | 1470 | 0.3 ± 0.002 | 0 | 0 | 83 | 0.3 ± 0.02 | –
7 | Cl.ON=Cc1nc(CCCCc2cccnc2)cs1 | 700 | 0.54 ± 0.01 | – | – | – | – | – | – | highly selective efficacy
8 | Cl.ON=Cc1csc(CCc2ccncc2)n1 | 0 | 0 | 0 | 0 | 0 | 0 | 0 | 0 | –
9 | Cl.ON=Cc1csc(CCc2ncccn2)n1 | 130 | 0.38 ± 0.03 | – | – | – | – | – | – | highly selective efficacy
10 | Cl.ON=Cc1cnc(CCCCc2cccnc2)s1 | 11700 | 0.07 ± 0.0007 | 167 | 0.1 ± 0.002 | 0 | 0 | 450 | 0.3 ± 0.008 | –
